# Wnt act = activates Wnt/beta-catenin signaling in a reporter cell assay; 300,000 tested, 1.2% active; activation, % at 9.35 µM; AID 743398; activator, plate reader; in the data active means activation above about 30%, passing the limit was not always enough; inconclusive means no clear call, values can overlap the other calls;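 further: 0% = neutral control wells and 100% = positive control wells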
# PglD inh = PglD (C. jejuni) enzyme inhibition | purified PglD enzyme, DTNB colorimetric CoA detection | inhibition, % at 12.5 µM | 360,000 tested, 0.098% active | AID 602405; in the data active means inhibition above about 16%, passing the limit was not always enough; inconclusive means no clear call, values can overlap the other calls
# miR122 inh = blocks miR-122 activity in Huh7 sensor cells; Huh7 miR-122 Renilla luciferase sensor, 48 h; neutral wells = 0, positive control = 100; activation (reporter increase), % at 12.5 µM; 340,000 tested, 0.3% active; AID 602342;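 active means mean replicate activation score at least 90 and every replicate individually at or above 90; inconclusive means only one of the two criteria met; inactive means neither criterion met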;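 further: higher luciferase means less miR-122 activity so hits act as miR-122 inhibitors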
# esBAF inh = inhibitors of esBAF chromatin remodeling in mouse ES cells; Bmi1-luciferase knock-in reporter, 24 h; 100% = twice the neutral-well signal; 350,000 tested, 2% active; AID 602393; reporter increase, % at 12.5 µM; in the data active means activation above about 40%; inconclusive means no clear call, values can overlap the other calls;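 further: 0% = median of the plate's neutral control wells and 100% = double that signal; a rise in the Bmi1 reporter signal indicates esBAF inhibition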
# MITF act = activators of MITF-driven TRPM1 promoter activity in SK-MEL-5 cells; activation, % at 12.5 µM; 300,000 tested, 0.75% active; SK-MEL-5 TRPM1-promoter luciferase, 24 h; % of positive control, neutral wells = 0;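 active means mean activation of at least 80% with every replicate also reaching 80%; inconclusive means mean reaches 80% but some replicate falls short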;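 further: 0% = neutral control wells and 100% = parthenolide positive control wells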
# Yeast UUG start = alters start codon recognition fidelity in yeast; S. cerevisiae UUG-firefly luciferase reporter, luminescence/redox ratio; activity score, % at 18.7 µM; actives 0.13% (n = 350,000); AID 602363;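 active = replicate mean at a twofold rise or more, about +100% in these data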;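 also: firefly luciferase made from a UUG start codon reports start codon fidelity; reporter light over untreated wells divided by growth signal over untreated wells; some hits fall short of that in this replicate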
# * marks the source's active call; other numbers are inactive results; ? = inconclusive; . = not tested or not shown; [ ] = another dose, or the depositor's remark. Most compounds without a hit are left out; they make up all but 2.8% or so of the library.
SMILES,Wnt act,PglD inh,miR122 inh,esBAF inh,MITF act,Yeast UUG start
COc1ccc(NC(=O)N(C)C[C@H]2OCCCC[C@H](C)Oc3ccc(NS(=O)(=O)c4ccc(C)cc4)cc3C(=O)N([C@@H](C)CO)C[C@@H]2C)cc1,.,-4,-3[16.7 µM],1,.,-1
Cc1ccc(SC2=C(Sc3ccc(C)cc3)C(=O)c3ccccc3C2=O)cc1,14,-2,.,42*,-19,-9
O=C(CSc1nc2ccc(NC(=O)CSc3nnnn3-c3ccccc3)cc2s1)Nc1ccccc1,-10,2,-4,.,-8,-14
Cn1cnnc1SCC(=O)Nc1ccc2nc(SCc3ccccc3F)sc2c1,25,-3,0,64*,106*,-20
CC(C)NC(=O)N(C)C[C@@H]1Oc2ccc(NC(=O)CCC(F)(F)F)cc2C(=O)N([C@@H](C)CO)C[C@H]1C,.,0,1[16.7 µM],-5,.,10
Cc1noc(C)c1S(=O)(=O)Nc1ccc2c(c1)C(=O)N([C@H](C)CO)C[C@@H](C)[C@@H](CN(C)S(=O)(=O)c1ccc(Cl)cc1)OCCCC[C@H](C)O2,.,-2,1[16.7 µM],13,.,-4
COc1ccc(NC(=O)N(C)C[C@@H]2OCCCC[C@H](C)Oc3ccc(NS(=O)(=O)c4cn(C)cn4)cc3C(=O)N([C@H](C)CO)C[C@@H]2C)cc1,.,1,14[16.7 µM],0,.,-12
Cc1[nH]c2ccccc2c1C(=O)/C=C\c1ccccc1Cl,.,.,.,.,19,.
Cc1[nH]c2ccccc2c1C(=O)/C=C/c1ccccc1,-2,0,13,84*,23,-7
COc1ccc(S(=O)(=O)N(C)C[C@@H]2Oc3ccc(NC(=O)Nc4c(C)noc4C)cc3CC(=O)N([C@@H](C)CO)C[C@@H]2C)cc1,.,0,-2[16.7 µM],4,.,-5
CN(C)/C=C1\C(=O)N(c2ccc(Cl)cc2)CS1(=O)=O,.,-4,-16,32,36,-11
Cc1ccc(N2CS(=O)(=O)/C(=C/N(C)C)C2=O)cc1,49*,-5,-15,15,68,-28
C[C@H]1CN([C@@H](C)CO)C(=O)c2cccc(NC(=O)Nc3ccccc3)c2O[C@H]1CN(C)Cc1ccccc1,.,0,18[16.7 µM],6,.,4
Nc1ccc2nc(-c3cc(Cl)c(N)c(Cl)c3)[nH]c2c1,43*,2,-5,48*,51,-23
O=[N+]([O-])c1ccc2nc(/C=C/c3ccc(Cl)cc3)[nH]c2c1,13,-1,2,47*,27,-27
Nc1ccc(-c2nc3ccc([N+](=O)[O-])cc3[nH]2)cc1,59*,.,.,.,10,.
O=C(C[C@H]1CC[C@H](NS(=O)(=O)c2ccccc2)[C@H](CO)O1)NCCN1CCCCC1,.,-3,.,-3,.,-16
C[C@@H]1CN([C@@H](C)CO)C(=O)c2cc(NS(=O)(=O)c3ccccc3)ccc2O[C@@H](C)CCCCO[C@@H]1CN(C)Cc1ccc(C(F)(F)F)cc1,.,-3,-8[16.7 µM],-1,.,6
O=C(C[C@H]1C[C@@H]2c3cc(NC(=O)Nc4ccc(C(F)(F)F)cc4)ccc3O[C@@H]2[C@@H](CO)O1)NCc1cccnc1,.,-2,1[16.7 µM],1,.,.
Cc1ccc(N2NC(C)(c3cccs3)NC2=S)cc1 (centres undefined),12,.,.,.,92*,.
CCOc1ccc2cc(C3CC(c4ccco4)=NN3S(C)(=O)=O)c(=O)[nH]c2c1 (centres undefined),5,5,126*,.,-1,-18
N#CC1c2ccccc2-c2ccccc2N1C(=O)c1ccccc1 (centres undefined),-3,.,98*,-14,.,-8
CCSc1nnc(-c2cccs2)o1,5,.,-2,44*,43,.
CC1CCCC(C)N1C(=O)c1cc(-c2cccs2)on1 (centres undefined),.,1,16,48*,78,-16
c1ccc2c(CSc3nnc(-c4ccncc4)o3)cccc2c1,0,3,-1,-28,8,-19

# Additional compounds:
SMILES,Wnt act,PglD inh,miR122 inh,esBAF inh,MITF act,Yeast UUG start
Clc1ccccc1CSc1nnc(-c2ccncc2)o1,.,3,-11,49*,.,-16
Cc1cc(C(=O)N2C(C)CCCC2C)no1 (centres undefined),2,9,-2,-3,-8,-7
c1ccc(-c2nnc(CSc3nnc(-c4cccs4)o3)o2)cc1,-2,0,1,-2,-1,-12
Fc1ccccc1CSc1nnc(-c2cccs2)o1,42*,.,.,.,106*,.
Cc1ccc(S(=O)(=O)N[C@H]2C=C[C@@H](CC(=O)NCc3ccncn3)O[C@@H]2CO)cc1,.,-2,.,1,.,-17
COCC(=O)N[C@H]1CC[C@H](CC(=O)NCc2ccccc2OC)O[C@@H]1CO,.,-2,.,-1,.,-18
CO[C@H]1CN(C)C(=O)c2ccc(NC(=O)C3CC3)cc2OC[C@H](C)N(CC2CCOCC2)C[C@H]1C,.,-1,15[16.7 µM],1,.,-2
c1ccc(CSc2nnc(-c3cccs3)o2)cc1,.,-3,1,47*,134*,-31
Fc1ccc(CSc2nnc(-c3cccs3)o2)cc1,21,.,.,.,70,.
CC1CCCCN1C(=O)CSc1nnc(-c2cccs2)o1 (centres undefined),22,-3,-3,18,?,.
CC1CCCC(C)N1C(=O)CSc1nnc(-c2cccs2)o1 (centres undefined),.,3,-1,46*,54,-24
c1ccc(-c2nnc(SCc3ccncc3)o2)cc1,1,-3,-1,37,.,-10
Cc1cccc(-c2nnc(SCc3ccccc3)o2)c1,42*,-5,2,63*,44,-19
CCC(=O)Nc1ccc2c(c1)OC[C@H](C)N(C(=O)Cc1ccccn1)C[C@@H](C)[C@H](OC)CN(C)C2=O,.,3,0[16.7 µM],4,.,-4
Cc1cc(C(=O)COC(=O)c2ccc(O)cc2)c(C)n1Cc1ccco1,?,1,-4,.,?,-27
CCOc1ncccc1C(=O)OCC(=O)c1cc(C)n(Cc2ccco2)c1C,46*,-4,-1,58*,41,-47
Cc1cc(C(=O)COC(=O)c2ccc(Br)o2)c(C)n1C,17,0,-2,45*,111*,2
Cc1cc(C(=O)COC(=O)c2ccc(Br)o2)c(C)n1Cc1ccco1,60*,.,.,.,.,.
CCCC(=O)Nc1ccc2c(c1)C(=O)N(C)C[C@H](OC)[C@H](C)CN(C(=O)CN(C)C)[C@@H](C)CO2,.,3,-15[16.7 µM],-2,.,-1
Oc1ccc(COCc2ccccc2)c2cccnc12,1,-1,-14,60*,-25,0
COC(=O)C(C)Oc1ccc2cc(-c3ccccc3)c(=O)oc2c1 (centres undefined),1,-3,-6,9,13,-1
COc1ccc2cc(-c3ccccc3)c(=O)oc2c1,42*,4,.,3,36,-24
COc1cccc2cc(-c3ccccc3)c(=O)oc12,35*,-5,.,32*,62,1
COc1cccc2cc(-c3nc(-c4cccs4)cs3)c(=O)oc12,59*,-4,-6,.,85*,-9

# Compounds shown so far with fluorine:
SMILES,Wnt act,PglD inh,miR122 inh,esBAF inh,MITF act,Yeast UUG start
Cn1cnnc1SCC(=O)Nc1ccc2nc(SCc3ccccc3F)sc2c1,25,-3,0,64*,106*,-20
CC(C)NC(=O)N(C)C[C@@H]1Oc2ccc(NC(=O)CCC(F)(F)F)cc2C(=O)N([C@@H](C)CO)C[C@H]1C,.,0,1[16.7 µM],-5,.,10
C[C@@H]1CN([C@@H](C)CO)C(=O)c2cc(NS(=O)(=O)c3ccccc3)ccc2O[C@@H](C)CCCCO[C@@H]1CN(C)Cc1ccc(C(F)(F)F)cc1,.,-3,-8[16.7 µM],-1,.,6
O=C(C[C@H]1C[C@@H]2c3cc(NC(=O)Nc4ccc(C(F)(F)F)cc4)ccc3O[C@@H]2[C@@H](CO)O1)NCc1cccnc1,.,-2,1[16.7 µM],1,.,.
Fc1ccccc1CSc1nnc(-c2cccs2)o1,42*,.,.,.,106*,.
Fc1ccc(CSc2nnc(-c3cccs3)o2)cc1,21,.,.,.,70,.

# Source: PubChem
